Test results: EP4603105A1, “PHARMACEUTICAL COMPOSITION CONTAINING CYCLIC COMPOUND HAVING SELECTIVE KRAS INHIBITORY EFFECT AGAINST HRAS AND NRAS” (CHUGAI SEIYAKU KABUSHIKI KAISHA, priority 2022, dated 2024)
Read-outs that look alike come from different tables or passages of the source.

Sequences of proteins named here, by UniProt entry; tags and fusion partners are left off. Residues count along the entry.
UniProt P01112, whole entry: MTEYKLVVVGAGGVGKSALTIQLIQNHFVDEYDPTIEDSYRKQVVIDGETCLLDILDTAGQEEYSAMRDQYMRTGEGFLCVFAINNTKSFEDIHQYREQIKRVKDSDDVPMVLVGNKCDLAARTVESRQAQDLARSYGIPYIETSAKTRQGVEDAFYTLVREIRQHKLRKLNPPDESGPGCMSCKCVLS
UniProt P01116, 1-188 isoform 2: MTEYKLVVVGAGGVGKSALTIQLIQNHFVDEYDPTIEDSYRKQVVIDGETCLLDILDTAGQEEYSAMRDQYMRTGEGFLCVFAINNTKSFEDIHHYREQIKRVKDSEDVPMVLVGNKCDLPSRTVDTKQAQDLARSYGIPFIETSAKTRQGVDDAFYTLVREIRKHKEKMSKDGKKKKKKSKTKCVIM
UniProt P01111, whole entry: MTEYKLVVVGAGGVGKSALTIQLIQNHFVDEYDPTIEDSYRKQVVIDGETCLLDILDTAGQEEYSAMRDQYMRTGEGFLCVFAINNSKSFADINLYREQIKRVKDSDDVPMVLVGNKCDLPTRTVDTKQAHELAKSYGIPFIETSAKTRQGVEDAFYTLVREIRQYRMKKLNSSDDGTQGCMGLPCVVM

Key:
[1] = molecular target: HRAS wild-type protein (Homo sapiens, UniProt P01112); test: Binding to HRAS by surface plasmon resonance (SPR), KD and KD ratio to KRAS
[2] = test system: human lung cancer strain NCI-H441; test: NCI-H441 cell proliferation inhibitory activity (CellTiter-Glo, 4 days); format: cell-based
[3] = molecular target: GDP-bound KRAS wild-type protein (Homo sapiens, UniProt P01116); test: Binding to KRAS by surface plasmon resonance (SPR), dissociation constant KD
[4] = molecular target: GDP-bound NRAS wild-type protein (Homo sapiens, UniProt P01111); test: Binding to NRAS by surface plasmon resonance (SPR), KD and KD ratio to KRAS
[5] = ratio of KD with respect to HRAS wild-type protein to KD with respect to KRAS
[6] = read-out: NCl-H441 IC50, 50% proliferation inhibitory concentration, four days
[7] = read-out: KRAS KD, Single Cycle Kinetics, 1:1 binding model
[8] = ratio of KD with respect to GDP-bound NRAS wild-type protein to KD with respect to KRAS
[9] = ratio of the KD value with respect to HRAS wild-type protein to the KD value with respect to KRAS
[10] = ratio of the KD value with respect to GDP-bound NRAS wild-type protein to the KD value with respect to KRAS
[11] = ratio of KD for HRAS wild-type protein to KD for KRAS
[12] = ratio of KD for GDP-bound NRAS wild-type protein to KD for KRAS
[13] = read-out: KRAS KD, 1:1 binding model

Row | SMILES | HRAS /KRAS [1, 5] | Kd [3, 7] [pM] | NRAS /KRAS [4, 8] | also measured
1 | CCC[C@H]1C(=O)N[C@@H]([C@@H](C)CC)C(=O)N(C)CC(=O)N(C)[C@H]2C/C=C\CCN(C2=O)[C@@H](Cc2ccc(C(F)(F)F)cc2)C(=O)N(C)CC(=O)N[C@@H](CCc2cc(F)c(C(F)(F)F)c(F)c2)C(=O)N2C[C@H](OCC)C[C@H]2C(=O)NC2(CCC2)C(=O)N(C)[C@@H](C(CC)CC)C(=O)N(C)[C@H](C(=O)N(C)C)CC(=O)N1C | A (a compound having 10 or more and less than 20 is denoted as A) | 190 | AA (a compound having 20 or more is denoted as AA) | IC50 [2, 6]: 21300 pM
2 | CCOC1CC2C(=O)NC3(CCC3)C(=O)N(C)C(C3CCCC3)C(=O)N(C)C(C(=O)N3CCOCC3)CC(=O)N(C)C(Cc3cccnc3)C(=O)NC(C(C)CC)C(=O)N(C)CC(=O)N(C)C3CCCCCN(C3=O)C(Cc3ccc(F)cc3)C(=O)N(C)CC(=O)NC(CCc3cc(F)c(C(F)(F)F)c(F)c3)C(=O)N2C1 (stereo not shown) | B (a compound having 3 or more and less than 10 is denoted as B) | 80 | B (a compound having 3 or more and less than 10 is denoted as B) | IC50 [2, 6]: 134000 pM
3 | CC[C@H](C)[C@@H]1NC(=O)[C@H](CC(C)C)N(C)C(=O)C[C@@H](C(=O)N(C)C)N(C)C(=O)[C@H](C2CCCC2)N(C)C(=O)C2(CCCC2)NC(=O)[C@@H]2CCCN2C(=O)[C@H](CCc2ccc(C(F)(F)F)c(Cl)c2)NC(=O)CN(C)C(=O)[C@H](Cc2ccc(C(F)(F)F)cc2)N2CC=CCOC[C@@H](C2=O)N(C)C(=O)CN(C)C1=O | – | – | – | HRAS /KRAS [1, 9]: C (A compound having a KD ratio of 0.1 or more and less than 3 is denoted as C); NRAS /KRAS [4, 10]: C (A compound having a KD ratio of 0.1 or more and less than 3 is denoted as C)
4 | CCCO[C@@H]1C[C@H]2C(=O)NC3(CCC3)C(=O)N(C)[C@@H](C3CCCC3)C(=O)N(C)[C@H](C(=O)N3CCOCC3)CC(=O)N(C)[C@@H](CC(C)C)C(=O)N[C@@H]([C@@H](C)CC)C(=O)N(C)CC(=O)N(C)[C@H]3CCCCCN(C3=O)[C@@H](Cc3ccc(C(F)(F)F)cc3)C(=O)N(C)CC(=O)N[C@@H](CCc3cc(F)c(C(F)(F)F)c(F)c3)C(=O)N2C1 | B (a compound having 3 or more and less than 10 is denoted as B) | 600 | – | IC50 [2, 6]: 153000 pM
5 | CCCCO[C@@H]1C[C@H]2C(=O)NC3(CCC3)C(=O)N(C)[C@@H](C3CCCC3)C(=O)N(C)[C@H](C(=O)N3CCOCC3)CC(=O)N(C)[C@@H](CC(C)C)C(=O)N[C@@H]([C@@H](C)CC)C(=O)N(C)CC(=O)N(C)[C@H]3CCCCN(C3=O)[C@@H](Cc3ccc(C(F)(F)F)cc3)C(=O)N(C)CC(=O)N[C@@H](CCc3cc(F)c(C(F)(F)F)c(F)c3)C(=O)N2C1 | – | – | – | HRAS /KRAS [1, 11]: B (a compound having 3 or more and less than 10 is denoted as B); IC50 ([2]; read-out: NCl-H441 IC50, NCI-H441 cells, four days): 7600 pM; NRAS /KRAS [4, 12]: C (A compound having a KD ratio of 0.1 or more and less than 3 is denoted as C)
6 | CC[C@H](C)[C@@H]1NC(=O)[C@H](CC)N(C)C(=O)C[C@@H](C(=O)N(C)C)N(C)C(=O)[C@H](C2CCCC2)N(C)C(=O)C2(CCCC2)NC(=O)[C@@H]2CCCN2C(=O)[C@H](CCc2cc(F)c(C(F)(F)F)c(F)c2)NC(=O)CN(C)C(=O)[C@H](Cc2ccc(C(F)(F)F)cc2)N2CC(C)[C@@H](C)C[C@@H](C2=O)N(C)C(=O)CN(C)C1=O (stereo partly shown) | B (a compound having 3 or more and less than 10 is denoted as B) | 90 | – | –
7 | CC[C@H](C)[C@@H]1NC(=O)[C@H](CC(C)C)N(C)C(=O)C[C@@H](C(=O)N(C)C)N(C)C(=O)[C@H](C2CCCC2)N(C)C(=O)C2(CCCC2)NC(=O)[C@@H]2CCCN2C(=O)[C@H](CCc2ccc(C(F)(F)F)c(Cl)c2)NC(=O)CN(C)C(=O)[C@H](Cc2ccc(C(F)(F)F)cc2)N2CC/C=C(/C)C[C@@H](C2=O)N(C)C(=O)CN(C)C1=O | – | – | – | HRAS /KRAS [1, 9]: B (a compound having 3 or more and less than 10 is denoted as B); NRAS /KRAS [4, 10]: B (a compound having 3 or more and less than 10 is denoted as B)
8 | CCC[C@H]1C(=O)N[C@@H]([C@@H](C)CC)C(=O)N2C[C@@H](OC)C[C@H]2C(=O)N(C)[C@H]2C/C=C\CCN(C2=O)[C@@H](Cc2ccc(C)cc2)C(=O)N(C)CC(=O)N[C@@H](CCc2ccc(C(F)(F)F)c(Cl)c2)C(=O)N2C[C@H](OCC)C[C@H]2C(=O)NC2(CC(C)(C)C2)C(=O)N(C)[C@@H](C2CCCC2)C(=O)N(C)[C@H](C(=O)N(C)C)CC(=O)N1C | – | – | – | HRAS /KRAS [1, 11]: B (a compound having 3 or more and less than 10 is denoted as B); Kd [3, 13]: 320 pM; NRAS /KRAS [4, 12]: A (a compound having 10 or more and less than 20 is denoted as A)
9 | CC[C@H](C)[C@@H]1NC(=O)[C@H](CC(C)C)N(C)C(=O)C[C@@H](C(=O)N(C)C)N(C)C(=O)[C@H](C2CCCC2)N(C)C(=O)C2(CCCC2)NC(=O)[C@@H]2CCCN2C(=O)[C@H](CCc2ccc(C(F)(F)F)c(Cl)c2)NC(=O)CN(C)C(=O)[C@H](Cc2ccc(C(F)(F)F)cc2)N2CCC=CCCN(CC2=O)C(=O)CN(C)C1=O | – | – | – | HRAS /KRAS [1, 9]: C (A compound having a KD ratio of 0.1 or more and less than 3 is denoted as C); NRAS /KRAS [4, 10]: C (A compound having a KD ratio of 0.1 or more and less than 3 is denoted as C)
10 | CCOC1CC2C(=O)NC3(CCC3)C(=O)N(C)C(C3CCCC3)C(=O)N(C)C(C(=O)N(C)C)CC(=O)N(C)C(Cc3ccsc3)C(=O)NC(C(C)CC)C(=O)N(C)CC(=O)N(C)C3CCCCCN(C3=O)C(Cc3ccc(C(F)(F)F)cc3)C(=O)N(C)CC(=O)NC(CCc3cc(F)c(C(F)(F)F)c(F)c3)C(=O)N2C1 (stereo not shown) | B (a compound having 3 or more and less than 10 is denoted as B) | 230 | B (a compound having 3 or more and less than 10 is denoted as B) | –
11 | CC[C@H](C)[C@@H]1NC(=O)[C@H](CC(C)C)N(C)C(=O)C[C@@H](C(=O)N2CCOCC2)N(C)C(=O)[C@H](C2CCCC2)N(C)C(=O)C2(CCC2)NC(=O)[C@@H]2CCCN2C(=O)[C@H](CCc2cc(F)c(C(F)(F)F)c(F)c2)NC(=O)CN(C)C(=O)[C@H](Cc2ccc(C(F)(F)F)cc2)N2C[C@H](C)CC[C@@H](C2=O)N(C)C(=O)[C@@H]2CCN2C1=O | B (a compound having 3 or more and less than 10 is denoted as B) | 800 | B (a compound having 3 or more and less than 10 is denoted as B) | –
12 | CCOC1CC2C(=O)NC3(CCC3)C(=O)N(C)C(C3CCCC3)C(=O)N(C)C(C(=O)N(C)C)CC(=O)N(C)C(Cc3ccsc3)C(=O)NC(C(C)CC)C(=O)N(C)CC(=O)N(C)C3CCCCCN(C3=O)C(Cc3ccc(F)cc3)C(=O)N(C)CC(=O)NC(CCc3cc(F)c(C(F)(F)F)c(F)c3)C(=O)N2C1 (stereo not shown) | B (a compound having 3 or more and less than 10 is denoted as B) | 190 | B (a compound having 3 or more and less than 10 is denoted as B) | –
13 | CCC[C@H]1C(=O)N[C@H]([C@@H](C)CC)C(=O)N2C[C@@H](OC)C[C@H]2C(=O)N(C)[C@H]2C/C=C\CCN(C2=O)[C@@H](Cc2ccc(C)cc2)C(=O)N(C)CC(=O)N[C@@H](CCc2ccc(C(F)(F)F)c(OC)c2)C(=O)N2C[C@H](OCC)C[C@H]2C(=O)NC2(CCC2)C(=O)N(C)[C@@H](C2CCCC2)C(=O)N(C)[C@H](C(=O)N(C)C)CC(=O)N1C | – | – | – | HRAS /KRAS [1, 11]: B (a compound having 3 or more and less than 10 is denoted as B); Kd [3, 13]: 400 pM; NRAS /KRAS [4, 12]: A (a compound having 10 or more and less than 20 is denoted as A)
